This assay addresses human β3 adrenergic receptor (Homo sapiens, UniProt P13945). The assay is described as follows: Functional assay: cAMP production (LANCE TR-FRET) in CHO cells stably transfected with cloned β3 adrenergic receptor. In kind it is cell-based. The settings on record: read-out: Human β3 Functional; Table 5. A general note: Changes in cAMP serve as a functional read-out for many G protein-coupled receptors.

The chains behind the UniProt entries cited, without tags or fusion partners.
UniProt P13945, whole entry: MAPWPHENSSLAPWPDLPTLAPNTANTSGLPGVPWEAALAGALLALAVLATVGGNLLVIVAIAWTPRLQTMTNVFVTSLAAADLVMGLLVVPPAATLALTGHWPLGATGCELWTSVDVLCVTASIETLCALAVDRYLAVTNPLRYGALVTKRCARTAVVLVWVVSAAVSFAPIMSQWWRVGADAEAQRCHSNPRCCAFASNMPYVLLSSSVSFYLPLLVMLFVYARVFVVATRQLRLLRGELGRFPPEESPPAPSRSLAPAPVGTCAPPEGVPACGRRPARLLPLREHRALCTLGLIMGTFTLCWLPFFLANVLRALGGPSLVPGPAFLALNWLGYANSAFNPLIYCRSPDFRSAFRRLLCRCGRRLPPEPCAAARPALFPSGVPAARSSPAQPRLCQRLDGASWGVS

Consider `Cc1nnc(C(C)C(=O)Nc2ccc(C[C@@H]3CC[C@H]([C@H](O)c4ccccc4)N3)cc2)[nH]1` (single isomer, unassigned), for which the EC50 lay in the range of 1 to 10 nM.

Consider `CC(C(=O)Nc1ccc(C[C@@H]2CC[C@H]([C@H](O)c3ccccc3)N2)cc1)n1cnccc1=O` (single isomer, unassigned), for which the EC50 fell in the range of 1 to 10 nM.
